Assay results from ChEMBL document CHEMBL1125678, “Quinazolineacetic acids and related analogues as aldose reductase inhibitors” (J Med Chem, 1991).

Target: Aldo-keto reductase family 1 member B1 (Bos taurus, UniProt P16116)
Assay: In vitro inhibition of aldose reductase in partially purified bovine lens preparation at a concentration of 10e -8M.

## COc1ccc2c(C(=S)N(C)CC(=O)O)cccc2c1C(F)(F)F [TOLRESTAT]
  IC50: 33 nM
